From article PMC10267138, “A polyamine acetyltransferase regulates the motility and biofilm formation of Acinetobacter baumannii” (Nature Communications, 2023)

Tested on: NCCCN
Assay: purified protein
Details: [14C]acetyl-CoA (200 µM) co-substrate, pH 8.5 in Results (Methods say Tris-HCl pH 9), 22 °C

## Dpa (Acinetobacter baumannii)
  Km: 84.9 µM
